The values below come from patent publication US20240360082A1, “SUBSTITUTED PYRIDONE COMPOUNDS USEFUL TO TREAT ORTH[…]” (priority 2021, published 2024).

In this assay the test system is influenza virus (multiple flu strains). The assay can be described thus: organism not typed. The note with it: MDCK.
Setting [1] is: read-out: NA Alaska H3N2, NA assay, Alaska H3N2 strain.
The mark [2] stands for this setting: read-out: NA CAL H1N1, NA assay, CAL H1N1 strain.
[3] abbreviates: read-out: NA Alaska H3N2 IC50, NA assay, Alaska H3N2 strain.
The mark [4] stands for this setting: read-out: NA CAL H1N1 IC50, NA assay, CAL H1N1 strain.

Like-named read-outs stand apart in the source and are kept apart here.

On to `NC(=O)c1cc(-c2ccc(OC(F)F)cc2)c(C(F)(F)F)[nH]c1=O` [Example 12, 5-(4-(difluoromethoxy)phenyl)-2-oxo-6-(trifluoromethyl)-1,2-dihydropyridine-3-carboxamide], for which the IC50 reads like this: under setting [1], 5000 to 10000 nM; under setting [2], 25000 to 50000 nM; (read-out: NA—PR8 H1N1, NA assay, PR8 H1N1 strain) 10000 to 25000 nM.
Regarding `NC(=O)c1cc(-c2ccc(OCCO)cc2)c(C(F)(F)F)[nH]c1=O` [Example 255, 5-(4-(2-hydroxyethoxy)phenyl)-2-oxo-6-(trifluoromethyl)-1,2-dihydropyridine-3-carboxamide], the IC50 runs as follows: under setting [3], 100 to 1000 nM; under setting [4], 5000 to 10000 nM.
The corresponding values for `NC(=O)c1cc(-c2ccc(OC[C@H]3COC[C@@H](C4CC4)O3)cc2)c(C(F)(F)F)[nH]c1=O` [Example 325, 5-(4-(((2R,6R)-6-cyclopropyl-1,4-dioxan-2-yl)methoxy)phenyl)-2-oxo-6-(trifluoromethyl)-1,2-dihydropyridine-3-carboxamide] are 10 to 100 nM and 100 to 1000 nM.
Turning to `COc1ccnc(COc2ccc(-c3cc(C(N)=O)c(=O)[nH]c3C(F)(F)F)cc2)c1` [Example 127, 5-(4-((4-methoxypyridin-2-yl)methoxy)phenyl)-2-oxo-6-(trifluoromethyl)-1,2-dihydropyridine-3-carboxamide], the IC50 under setting [1] is 1000 to 5000 nM and the IC50 under setting [2] lay in the range of 1000 to 5000 nM.
For the compound `COCCN1CCOC(COc2ccc(-c3cc(C(N)=O)c(=O)[nH]c3C(F)(F)F)cc2)C1` (stereo not drawn) [Example 193, 5-(4-((4-(2-methoxyethyl)morpholin-2-yl)methoxy)phenyl)-2-oxo-6-(trifluoromethyl)-1,2-dihydropyridine-3-carboxamide], the IC50 reads like this: under setting [1], 100 to 1000 nM; under setting [2], 10000 to 25000 nM.
Regarding `NC(=O)c1cc(-c2ccc(OCc3ccsc3)cc2)c(C(F)(F)F)[nH]c1=O` [Example 110, 2-oxo-5-(4-(thiophen-3-ylmethoxy)phenyl)-6-(trifluoromethyl)-1,2-dihydropyridine-3-carboxamide], the IC50 fell in the range of 100 to 1000 nM under setting [1] and 1000 to 5000 nM under setting [2].
Regarding `NC(=O)c1cc(-c2ccc(OCC(O)CN3CCOCC3)cc2)c(C(F)(F)F)[nH]c1=O` (stereo not drawn) [Example 260, 5-(4-(2-hydroxy-3-morpholinopropoxy)phenyl)-2-oxo-6-(trifluoromethyl)-1,2-dihydropyridine-3-carboxamide], the IC50 is, setting by setting: under setting [3], 1000 to 5000 nM; under setting [4], 25000 to 50000 nM.
Take `N#Cc1cc(-c2cc(C(N)=O)c(=O)[nH]c2C(F)(F)F)ccc1OCC1COCCO1` (stereo not drawn) [Example 241, 5-(4-((1,4-dioxan-2-yl)methoxy)-3-cyanophenyl)-2-oxo-6-(trifluoromethyl)-1,2-dihydropyridine-3-carboxamide]: the IC50 under setting [3] was in the range of 1000 to 5000 nM.
On to `COC[C@@]1(C)COC[C@@H](COc2ccc(-c3cc(C(N)=O)c(=O)[nH]c3C(F)(F)F)cc2)O1` [Example 405, 5-(4-(((2S,6S)-6-(methoxymethyl)-6-methyl-1,4-dioxan-2-yl)methoxy)phenyl)-2-oxo-6-(trifluoromethyl)-1,2-dihydropyridine-3-carboxamide], for which the IC50 under setting [3] was less than 10 nM and the IC50 under setting [4] was less than 10 nM.
Consider `N#CCC1(COc2ccc(-c3cc(C(N)=O)c(=O)[nH]c3C(F)(F)F)cc2)COC1` [Example 229, 5-(4-((3-(cyanomethyl)oxetan-3-yl)methoxy)phenyl)-2-oxo-6-(trifluoromethyl)-1,2-dihydropyridine-3-carboxamide], for which the IC50 reads like this: under setting [3], 1000 to 5000 nM; under setting [4], 5000 to 10000 nM.
As to `NC(=O)c1cc(-c2ccc(OCc3nccs3)cc2)c(C(F)(F)F)[nH]c1=O` [Example 143, 2-oxo-5-(4-(thiazol-2-ylmethoxy)phenyl)-6-(trifluoromethyl)-1,2-dihydropyridine-3-carboxamide], the IC50 lay within 100 to 1000 nM under setting [1] and 1000 to 5000 nM under setting [2].
For `NC(=O)c1cc(-c2ccc(OCC3COCC(=O)N3)cc2)c(C(F)(F)F)[nH]c1=O` (stereo not drawn) [Example 250, 2-oxo-5-(4-((5-oxomorpholin-3-yl)methoxy)phenyl)-6-(trifluoromethyl)-1,2-dihydropyridine-3-carboxamide], the IC50 was 1000 to 5000 nM under setting [3] and 25000 to 50000 nM under setting [4].
With `NC(=O)c1cc(-c2ccc(OCc3cncs3)cc2)c(C(F)(F)F)[nH]c1=O` [Example 134, 2-oxo-5-(4-(thiazol-5-ylmethoxy)phenyl)-6-(trifluoromethyl)-1,2-dihydropyridine-3-carboxamide], the IC50 under setting [1] was in the range of 100 to 1000 nM and the IC50 under setting [2] was 1000 to 5000 nM.
On to `NC(=O)c1cc(-c2ccc(OCc3ccc(F)c([N+](=O)[O-])c3)cc2)c(C(F)(F)F)[nH]c1=O` [Example 93, 5-(4-((4-fluoro-3-nitrobenzyl)oxy)phenyl)-2-oxo-6-(trifluoromethyl)-1,2-dihydropyridine-3-carboxamide], for which the IC50 under setting [1] lay in the range of 100 to 1000 nM and the IC50 under setting [2] was 100 to 1000 nM.
For `NC(=O)c1cc(-c2ccc(OCc3cccnc3N3CCOCC3)cc2)c(C(F)(F)F)[nH]c1=O` [Example 142, 5-(4-((2-morpholinopyridin-3-yl)methoxy)phenyl)-2-oxo-6-(trifluoromethyl)-1,2-dihydropyridine-3-carboxamide], the IC50 was 1000 to 5000 nM under setting [1] and 10000 to 25000 nM under setting [2].
